Ab-14 light chain CDR variants: yeast mating affinities

The measurements come from Engelhart et al. 2022 (doi:10.1038/s41597-022-01779-4) through the FLAb antibody collection.

Target peptide (SARS-CoV-2 spike, HR2 region): PDVDLGDISGINAS

Each scFv is VH, the linker GGGGSGGGGSGGGGS, VL, as in the parent Ab-14, and differs from it in the CDRs of the light chain only.
VH: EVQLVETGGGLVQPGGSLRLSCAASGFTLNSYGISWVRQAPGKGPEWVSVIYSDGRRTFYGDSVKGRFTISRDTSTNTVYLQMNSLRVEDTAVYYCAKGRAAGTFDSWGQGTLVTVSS
VL: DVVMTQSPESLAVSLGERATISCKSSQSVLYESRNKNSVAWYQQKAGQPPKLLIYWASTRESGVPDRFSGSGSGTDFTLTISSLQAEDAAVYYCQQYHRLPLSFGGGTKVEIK

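The parent was found by panning a naive human phage display library on the peptide. The library (AAYL50) carries one to three amino acid substitutions per variant, with no insertions or deletions. AlphaSeq pools MATa yeast showing the antibodies with MATalpha yeast showing the peptide. Binding brings cells together so that they mate, and sequencing counts the barcode pairs among the diploids. Read counts were normalised to the haploid input and turned into Kd by a linear fit to BCL2-family pairs of known affinity, for each replicate. There are three technical replicates.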

Changes read parent residue, position, new residue, counted from the first residue of the VL shown. Kd is apparent (estimated from mating counts) and averaged on the log scale over replicates with a signal. Smaller is tighter. A pair that was not seen in any replicate is written "no signal"; this usually means weak binding, but a binder can also be missed. Empty control strains, which show no peptide, gave a signal in 18% of pairings with library AAYL50; the median was 15 µM and 95% of these signals were weaker than 970 nM. No background was subtracted. Parent in this assay: reference entry 4.4 nM, copy in this library 48 nM.

| # | apparent Kd | detected | changes |
|---|---|---|---|
| 1 | 880 pM | 3/3 | S28P+L30T+A57G |
| 2 | no signal | 0/3 | S58W+Y97W+L100R |
| 3 | 170 µM | 3/3 | E32T+S38C+E61N |
| 4 | 11 nM | 3/3 | R34Q+T59C+E61G |
| 5 | 1.8 µM | 3/3 | S33T+N37V+S62Y |
| 6 | 5.6 µM | 1/3 | S28H+A57R+R60N |
| 7 | no signal | 0/3 | S28A+V29K+S38K |
| 8 | 1.1 µM | 3/3 | T59E+R60V+R99F |
| 9 | 2.5 nM | 3/3 | K24M+W56G+Q96E |
| 10 | no signal | 0/3 | Y31A+Y97D+H98A |
| 11 | 3.9 nM | 3/3 | K24H+S62L+Y97E |
| 12 | no signal | 0/3 | A40S+T59H+P101I |
| 13 | no signal | 0/3 | K24P+K36M+A57G |
| 14 | 9.8 nM | 3/3 | V29H+N35I+S62T |
| 15 | no signal | 0/3 | S58V+R60D+S103I |
| 16 | 77 µM | 2/3 | K36D+V39S+R60I |
| 17 | 11 µM | 2/3 | N37Y+S58F+L100K |
| 18 | no signal | 0/3 | E32W+S38K+Q95N |
| 19 | no signal | 0/3 | K36T+V39N+S62F |
| 20 | 2.5 nM | 3/3 | W56M+H98Q |
| 21 | 34 µM | 1/3 | S26G+R34F+S103F |
| 22 | no signal | 0/3 | K24S+A57Q+S103K |
| 23 | 3.0 nM | 3/3 | Q27E+E32Q+S58T |
| 24 | 110 nM | 3/3 | N37R+Q96I+Y97S |
| 25 | 48 µM | 1/3 | N37V+A57Q+L102E |
| 26 | no signal | 0/3 | K24P+S26T+N37M |
| 27 | 91 nM | 3/3 | V29D+S58I+S103G |
| 28 | 360 µM | 3/3 | K36N+N37A+V39R |
| 29 | 18 µM | 2/3 | S28F+A40L+S103Q |
| 30 | 280 µM | 1/3 | E61P+Q95Y+Y97P |
| 31 | no signal | 0/3 | K36M+A40W+W56K |
| 32 | 26 nM | 3/3 | Y31N+N37H+L100M |
| 33 | no signal | 0/3 | E32G+N35R+Y97V |
| 34 | 18 µM | 2/3 | E61K+L102P |
| 35 | 490 nM | 3/3 | K36F+S58W+R99K |
| 36 | 4.8 µM | 2/3 | V29K+V39D+Y97W |
| 37 | 20 nM | 3/3 | N37S+R60L+L102S |
| 38 | 38 µM | 1/3 | S33P+Q95N+L100T |
| 39 | 110 µM | 2/3 | S33A+W56G+Y97T |
| 40 | no signal | 0/3 | A40N+Q95E+P101M |
| 41 | 860 nM | 3/3 | Y31E+A40R+Y97G |
| 42 | no signal | 0/3 | N37W+V39N |
| 43 | 140 nM | 3/3 | E32L+T59P+R99L |
| 44 | 36 µM | 2/3 | V29Y+V39S+L100S |
| 45 | 11 nM | 3/3 | S25C+S28G+N37K |
| 46 | no signal | 0/3 | Y31T+E32T+A40L |
| 47 | 39 nM | 3/3 | Q27G+L30G+A57E |
| 48 | 8.9 nM | 3/3 | S25D+L30K+K36D |
| 49 | 4.7 µM | 1/3 | N37H+R99I+P101E |
| 50 | 31 nM | 3/3 | S33M+Q96A+S103H |
| 51 | 5.3 nM | 3/3 | W56H+R60S+Y97G |

The 7 strongest on average among those seen in every replicate, once more:

| changes | apparent Kd | detected |
|---|---|---|
| S28P+L30T+A57G | 880 pM | 3/3 |
| W56M+H98Q | 2.5 nM | 3/3 |
| K24M+W56G+Q96E | 2.5 nM | 3/3 |
| Q27E+E32Q+S58T | 3.0 nM | 3/3 |
| K24H+S62L+Y97E | 3.9 nM | 3/3 |
| W56H+R60S+Y97G | 5.3 nM | 3/3 |
| S25D+L30K+K36D | 8.9 nM | 3/3 |